According to patent publication US20080317767A1, “Tripartitle Raftophilic Strutures and their Use” (priority 2004, published 2008):

Assay: Liposome raftophile assay (LRA)
Assay type: physicochemical
Settings: Example 34; compound 0.2-2.0 μM, 1 h at 37° C.
Procedure: The propensity of a compound to partition into the raft domain may be determined in an assay measuring the concentration of the compound in the raft domain and that in the non-raft domain after a given incubation time with the lipid membrane system under study. Apart from the DRM test discussed above, a liposome raftophilicity assay (LRA) may be employed. […] The fractions are separated and the amount of test compound in each is determined For each liposome type a lipophilicity value is determined from the amount of compound taken up by the liposome. […] Yet, the person skilled in the art is readily in a position to carry out a LRA by carrying out the following, summarized protocol. Lipophilicity of a compound is, inter alia, measured by said LRA. […]
The test system comprises three components in which test compounds may be found, the lipid membrane, the aqueous supernatant and in the test tube wall. Following incubation, the liposomes are removed from the system and test compounds are measured in the aqueous and tube wall fraction by fluorimetry or quantitative mass spectrometry. […]
The partition of test compounds into liposomes representing either non-raft or raft membrane is determined. […]
Compounds are detected in the aqueous supernatant and the adherent fraction by fluorimetry or quantitative mass spectrometry. […]

Substance: cholesteryl glycolic acid [cholesterol-based raft anchor]
- LRA raftophilicity (ratio of partition coefficients raft/non-raft liposomes): approximately 50
